One substance from US11084879B2, “Compositions and methods for treating pancreatitis and pain with death receptor agonists” (The Johns Hopkins University, priority 2016, dated 2021) can be followed below.

The assay has as its system activated PSCs. In words: Caspase 3/7 activity in culture-activated PSCs. Format: cell-based, human. As to conditions: PSCs culture activated 7 days; 10^3 ng/mL with Protein G, 3 h. On the procedure: TRAIL induces apoptosis by binding to its cognitive receptors, DR4 and DR5. To investigate whether both TRAIL receptors are necessary to induce apoptosis in activated PSCs, the caspase 3/7 activity (apoptosis markers) was measured by treating activated PSCs with either human anti-DR4 agonistic antibody (mapatumumab) or anti-DR5 agonistic antibody (conatumumab). For DR4 or DR5 specific antibody treatments, PSCs were culture activated for 7 days on 96 well plate (Corning) and sequential concentrations (0, 10^1, 10^2, 10^3 ng/mL) of mapatumumab (human anti-DR4 antibody, Creative Biolabs) or conatumumab (human anti-DR5 antibody, Creative Biolabs) with Protein G (Thermo Fisher Scientific, Waltham, Mass. #21193) were added and incubated for 3 h and the cells tested for caspase activity. Caspase 3/7 activities were measured by caspase3/7 assay kit (Promega) according to the manufacturer's protocol. The luminescence of each sample was measured on a plate reader (Bio-Tek Instruments Inc) with parameters of 1 min lag time and 0.5 sec/well read time (n=4).

Turning to “conatumumab: human anti-DR5 agonistic antibody (Creative Biolabs)”, the caspase-3/7 activity is on record as 10.79±1.42 fold.
